This note sets out measurements from ChEMBL document CHEMBL1124142, “N6-[2-(3,5-dimethoxyphenyl)-2-(2-methylphenyl)ethyl]adenosine and its uronamide derivatives. Novel adenosine agonists with both high affinity and high selectivity for the adenosine A2 receptor” (J Med Chem, 1988).

By UniProt entry, the sequences of proteins in these tests, tags left out.
UniProt P25099, whole entry: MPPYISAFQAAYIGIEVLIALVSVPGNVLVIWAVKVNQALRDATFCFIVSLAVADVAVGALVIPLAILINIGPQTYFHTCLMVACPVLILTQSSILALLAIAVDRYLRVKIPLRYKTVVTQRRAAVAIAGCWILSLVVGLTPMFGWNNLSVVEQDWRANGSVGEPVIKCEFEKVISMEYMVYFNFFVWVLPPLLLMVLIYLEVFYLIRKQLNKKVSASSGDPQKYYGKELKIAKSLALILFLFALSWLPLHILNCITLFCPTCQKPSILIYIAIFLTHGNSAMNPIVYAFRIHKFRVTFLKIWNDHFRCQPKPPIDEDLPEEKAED

Structures are written as SMILES. pKi: −log10 of the molar value.

By pKi is commonly meant −log10 of the Ki, conventionally taken in molar units. High values mean a low Ki, low ones a high Ki.

This experiment concerns the target Adenosine receptor A1 (Rattus norvegicus, UniProt P25099). In words: biochemical.

On to `Nc1nc(Nc2ccccc2)nc2c1ncn2[C@@H]1O[C@H](CO)[C@@H](O)[C@H]1O`, for which the pKi was 6.22.
